{"source": "patent USRE28744E", "about": "“Crystalline p-hydroxyampicillin and salts thereof” (priority 1968, dated 1976)", "format_in_all_cases": "cell-based", "key": {"Proteus mirabilis": {"system": "Proteus mirabilis", "assay": "in vitro antibacterial screening, M.I.C., Proteus mirabilis", "conditions": "read-out: M.I.C. Proteus mirabilis"}, "Kleb. pneum": {"system": "Kleb. pneum", "assay": "in vitro antibacterial screening, M.I.C., Kleb. pneum", "conditions": "read-out: M.I.C. Kleb. pneum, in vitro"}, "Salm. typhi": {"system": "Salm. typhi", "assay": "in vitro antibacterial screening, M.I.C., Salm. typhi", "conditions": "Salmonella enterica, read-out: M.I.C. Salm. typhi, in vitro"}, "Shigella flexneri": {"system": "Shigella flexneri", "assay": "in vitro antibacterial screening, M.I.C., Shigella flexneri"}}}
{"smiles": "CC1(C)S[C@@H]2[C@H](NC(=O)[C@H](N)c3ccc(O)cc3)C(=O)N2[C@H]1C(=O)O", "note": "[Example 3, 6-[(-)α-amino-p-hydroxyphenylacetamido]Penicillanic Acid]", "values": [{"measurement": "MIC", "setting": "Proteus mirabilis", "value": 1.25, "unit": "µg/mL"}, {"measurement": "MIC", "setting": "Kleb. pneum", "value": 1.25, "unit": "µg/mL"}, {"measurement": "MIC", "setting": "Salm. typhi", "value": 1.25, "unit": "µg/mL"}]}
{"smiles": "CC1(C)S[C@@H]2[C@H](NC(=O)[C@@H](N)c3ccc(O)cc3)C(=O)N2[C@H]1C(=O)O", "note": "[Example 4, 6[(+)α-amino-p-hydroxyphenylacetamido]penicillanic Acid]", "values": [{"measurement": "MIC", "setting": "Proteus mirabilis", "value": 12.5, "unit": "µg/mL"}, {"measurement": "MIC", "setting": "Shigella flexneri", "value": 12.5, "unit": "µg/mL"}, {"measurement": "MIC", "setting": "Salm. typhi", "value": 12.5, "unit": "µg/mL"}]}
